Laboratory results as given in ChEMBL document CHEMBL4725277, “Synthetic and therapeutic perspectives of nitrogen containing heterocycles as anti-convulsants” (Bioorg Med Chem, 2020).

Test: Neurotoxicity in ip and po injected mouse
Assay type: toxicity, organism-based
Details: in vivo

CCC1(c2ccccc2)C(=O)NC(=O)NC1=O [PHENOBARBITAL]
TD50: 65.5 mg/kg
